Laboratory results reported in patent US11161864B2, “Sting agonists” (Venenum Biodesign, LLC, priority 2018, dated 2021).

Sequences of proteins named here, by UniProt entry; tags and fusion partners are left off. Residues count along the entry.
UniProt Q86WV6, 155-379 G230A/H232R/R293Q: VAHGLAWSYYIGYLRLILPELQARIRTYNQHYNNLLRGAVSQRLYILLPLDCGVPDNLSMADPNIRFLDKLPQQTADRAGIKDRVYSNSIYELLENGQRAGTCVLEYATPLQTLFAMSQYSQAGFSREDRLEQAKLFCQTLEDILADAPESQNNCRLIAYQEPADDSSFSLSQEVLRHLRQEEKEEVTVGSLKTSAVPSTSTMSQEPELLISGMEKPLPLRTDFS
UniProt Q86WV6, 155-379 H232R: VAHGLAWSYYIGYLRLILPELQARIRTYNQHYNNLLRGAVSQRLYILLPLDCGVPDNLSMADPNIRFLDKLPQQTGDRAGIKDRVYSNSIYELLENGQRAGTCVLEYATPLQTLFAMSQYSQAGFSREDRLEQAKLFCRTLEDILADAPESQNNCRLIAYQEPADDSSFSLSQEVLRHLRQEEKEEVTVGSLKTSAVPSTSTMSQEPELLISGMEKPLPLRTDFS
UniProt Q3TBT3, 154-378: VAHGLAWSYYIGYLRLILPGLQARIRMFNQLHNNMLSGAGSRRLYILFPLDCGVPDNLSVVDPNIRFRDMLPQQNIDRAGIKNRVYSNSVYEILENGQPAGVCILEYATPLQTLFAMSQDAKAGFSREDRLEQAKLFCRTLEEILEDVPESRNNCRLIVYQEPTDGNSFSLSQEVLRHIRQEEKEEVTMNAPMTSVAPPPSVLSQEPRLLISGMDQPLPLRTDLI

Tests used:
[1] = molecular target: AQ variant of truncated human STING protein, amino acids 155-379 (Homo sapiens (Human), UniProt Q86WV6, G230A/H232R/R293Q); experiment: Human AQ STING [3H] 2′,3′-cGAMP scintillation proximity competition binding assay
Source text: (§1) A human STING [^3H] 2′,3′-cGAMP scintillation proximity competition binding assay was utilized to detect binding of compounds to STING protein. […] The protein encoding plasmid contained a HIS tag, followed by an Avi tag and then a SUMO tag, which were followed by the STING coding sequence within the pET-28a (+) vector. The plasmid was transfected into a BL21 (DE3)/BirA E. coli co-expression strain. Protein was purified from the bacterial lysate using a cobalt-affinity column. The purified protein was dialyzed against PBS and then 20% glycerol was added prior to storage at −80° C.
(§2) 2′,3′-cGAMP in assay buffer (50 mM Tris pH 7.5, 100 mM NaCl, 0.1% Fatty Acid Free BSA). Test compounds (2.5 μL) were added to the plate first followed by a 25 μL mixture of STING protein, streptavidin PVT SPA beads (Perkin Elmer) and 10 μL [^3H] 2′,3′-cGAMP. Plates were incubated at room temperature for 18 hrs and read on a Wallac MicroBeta TriLux (Perkin Elmer).

[2] = molecular target: wild-type (WT) truncated human STING protein, amino acids 155-379 (Homo sapiens (Human), UniProt Q86WV6, H232R); experiment: Human WT STING [3H] 2′,3′-cGAMP scintillation proximity competition binding assay
Source text: as §1, §2

[3] = molecular target: murine STING protein (amino acids 154-378) (Mus musculus (Mouse), UniProt Q3TBT3); experiment: Murine STING [3H] 2′,3′-cGAMP scintillation proximity competition binding assay

`Nc1nc2c(ncn2[C@@H]2O[C@@H]3COP(=O)(S)OCCn4c(nc5c(=O)[nH]cnc54)COP(=O)(S)O[C@@H]2[C@@H]3F)c(=O)[nH]1` (single isomer, unassigned) [Example 3B] showed an IC50 [1] of 10 to 100 µM and an IC50 [2] of 10 to 100 µM.
In the case of `Nc1nc2c(ncn2[C@@H]2O[C@@H]3COP(=O)(S)OCCn4c(nc5cnc(C6CC6)nc54)COP(=O)(S)O[C@@H]2[C@@H]3F)c(=O)[nH]1` (single isomer, unassigned) [Example 12C], the IC50 [1] is reported as 1 to 9.99 µM and the IC50 [2] is reported as 10 to 100 µM.
Work on `Nc1nc2c(ncn2[C@@H]2O[C@@H]3COP(=O)(S)OCC(F)(F)Cn4c(nc5cncnc54)COP(=O)(S)O[C@@H]2[C@@H]3F)c(=O)[nH]1` (single isomer, unassigned) [Example 19C] yielded an IC50 [1] of 1 to 9.99 µM and an IC50 [2] of 10 to 100 µM.
`Nc1nc2c(ncn2[C@@H]2O[C@@H]3COP(=O)(S)OCCn4c(nc5cncnc54)COP(=O)(S)O[C@@H]2C3)c(=O)[nH]1` (single isomer, unassigned) [Example 22B] showed an IC50 [1] of 10 to 100 µM and an IC50 [2] of 10 to 100 µM.
`Nc1nc2c(nnn2[C@@H]2O[C@@H]3COP(=O)(S)OCCn4c(nc5cncnc54)COP(=O)(S)O[C@@H]2[C@@H]3F)c(=O)[nH]1` (single isomer, unassigned) [Example 24B] showed an IC50 [1] of 10 to 100 µM and an IC50 [2] of 10 to 100 µM.
With `Nc1nc2c(ncn2[C@@H]2O[C@@H]3COP(=O)(S)OCCn4nc(-c5ccncc5)nc4COP(=O)(S)O[C@@H]2[C@@H]3F)c(=O)[nH]1` (single isomer, unassigned) [Example 34B] the IC50 [1] was 10 to 100 µM and the IC50 [2] was 10 to 100 µM.
With `N#Cc1cnc2c(c1)nc1n2CCOP(=O)(S)OC[C@H]2O[C@@H](n3cnc4c(=O)[nH]c(N)nc43)[C@H](OP(=O)(S)OC1)[C@@H]2F` (single isomer, unassigned) [Example 38C] the IC50 [1] was under 1 µM and the IC50 [2] was under 1 µM.
Work on `N#Cc1cnc2c(c1)nc1n2CCOP(=O)(S)OC[C@H]2O[C@@H](n3cnc4c(=O)[nH]c(N)nc43)[C@H](OP(=O)(S)OC1)[C@@H]2F` (single isomer, unassigned) [Example 38D] yielded an IC50 [1] of under 1 µM.
With `Nc1nc2c(nc3n2CCOP(=O)(S)OC[C@H]2O[C@@H](n4cnc5c(N)ncnc54)[C@H](OP(=O)(S)OC3)[C@@H]2F)c(=O)[nH]1` (stereo partly drawn) [Example 23B, (1S,21R,23R,24R)-11-Amino-23-(6-amino-9H-purin-9-yl)-24-fluoro-3,18-disulfanyl-2,4,17,19,22-pentaoxa-7,10,12,14-tetraaza-3lambda5,18lambda5-diphosphatetracyclo[19.2.1.06,14.08,13]tetracosa-6,8(13),11-triene-3,9,18-trione] the IC50 [1] was 10 to 100 µM, the IC50 [3] was 1 to 9.99 µM and the IC50 [2] was 10 to 100 µM.
